# Data as given in paper PMC7246923, “Inhibition of Xanthine Oxidase-Catalyzed Xanthine and 6-Mercaptopurine Oxidation by Flavonoid Aglycones and Some of Their Conjugates” (International Journal of Molecular Sciences, 2020).
# Protein sequences, listed by entry. Tags and fused reporters are not part of them.
# UniProt P80457, whole entry: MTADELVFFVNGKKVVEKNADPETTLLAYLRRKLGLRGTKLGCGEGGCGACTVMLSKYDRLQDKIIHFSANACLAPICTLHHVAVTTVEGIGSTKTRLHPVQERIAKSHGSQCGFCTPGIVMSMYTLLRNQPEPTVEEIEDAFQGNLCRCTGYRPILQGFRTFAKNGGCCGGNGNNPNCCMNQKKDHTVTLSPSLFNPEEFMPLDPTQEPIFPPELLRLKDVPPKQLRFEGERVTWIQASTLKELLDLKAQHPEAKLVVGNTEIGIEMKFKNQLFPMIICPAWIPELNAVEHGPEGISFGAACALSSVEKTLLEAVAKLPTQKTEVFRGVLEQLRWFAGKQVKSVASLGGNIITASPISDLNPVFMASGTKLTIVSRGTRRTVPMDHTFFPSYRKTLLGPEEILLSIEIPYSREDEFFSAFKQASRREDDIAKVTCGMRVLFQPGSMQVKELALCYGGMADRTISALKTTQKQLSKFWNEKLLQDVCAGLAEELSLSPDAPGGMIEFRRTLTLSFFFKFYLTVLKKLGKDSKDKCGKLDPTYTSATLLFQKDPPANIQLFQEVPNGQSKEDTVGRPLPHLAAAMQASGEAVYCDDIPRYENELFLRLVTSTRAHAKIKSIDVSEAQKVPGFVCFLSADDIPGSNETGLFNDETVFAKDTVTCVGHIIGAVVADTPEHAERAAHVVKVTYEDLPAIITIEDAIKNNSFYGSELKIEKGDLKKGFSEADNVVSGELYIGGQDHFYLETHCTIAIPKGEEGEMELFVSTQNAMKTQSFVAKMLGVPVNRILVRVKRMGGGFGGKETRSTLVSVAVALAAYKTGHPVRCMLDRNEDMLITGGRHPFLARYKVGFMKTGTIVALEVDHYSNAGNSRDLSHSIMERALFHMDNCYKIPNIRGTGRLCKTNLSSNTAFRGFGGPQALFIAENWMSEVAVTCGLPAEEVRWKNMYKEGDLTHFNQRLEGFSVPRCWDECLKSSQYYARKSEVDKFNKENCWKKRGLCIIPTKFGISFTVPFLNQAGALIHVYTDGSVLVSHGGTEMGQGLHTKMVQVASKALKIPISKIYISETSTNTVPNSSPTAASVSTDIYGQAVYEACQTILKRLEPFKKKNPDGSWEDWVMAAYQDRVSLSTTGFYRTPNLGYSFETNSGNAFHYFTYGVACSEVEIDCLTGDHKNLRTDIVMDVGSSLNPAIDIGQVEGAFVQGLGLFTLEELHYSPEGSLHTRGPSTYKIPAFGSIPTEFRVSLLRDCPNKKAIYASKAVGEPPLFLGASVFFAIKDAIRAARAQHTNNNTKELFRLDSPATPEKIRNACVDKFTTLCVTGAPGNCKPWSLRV
# Tests used:
# [1] = biological target: T1, Xanthine oxidase (XO; from bovine milk) (Bos taurus, UniProt P80457); experiment: XO-catalyzed xanthine oxidation (uric acid formation), HPLC; assay type: biochemical; conditions: substrate xanthine 5 μM; inhibitor 0–20 μM
# T1 construct: Xanthine oxidase (XO; from bovine milk); purchased Sigma-Aldrich; host or cells: bovine milk
# Description: (§1) Chrysin-7-glucuronide (C7G) and 6-thiouric acid were purchased from Carbosynth (Berkshire, UK). Chrysin-7-sulfate (C7S) was synthetized as described. Stock solutions of flavonoids (each 2 mM) were prepared in dimethyl sulfoxide (DMSO) and stored at −20 °C.
# (§2) To test the inhibitory effects of flavonoids and their metabolites on the XO-catalyzed oxidation of xanthine and 6MP, the previously reported methods were applied without modifications. […] In each experiment, solvent controls (DMSO) were used. Metabolite formation (% of control) was plotted vs. the inhibitor concentrations in decimal logarithmic scale. IC50 values were evaluated by sigmoidal fitting, employing GraphPad Prism 8 software (San Diego, CA, USA).
# (§3) After the in vitro XO assays, xanthine and uric acid as well as 6MP and 6-thiouric acid were quantified by the HPLC-UV methods described in our previous report, without any modifications.
# [2] = biological target: T1, Xanthine oxidase (XO; from bovine milk); experiment: XO-catalyzed 6-mercaptopurine oxidation (6-thiouric acid formation), HPLC; assay type: biochemical; conditions: substrate 6MP 5 μM; inhibitor 0–20 μM
# Description: as §1, §2, §3
compound,measurement,setting,value
"O=c1c(O)c(-c2ccc(O)cc2)oc2cc(O)cc(O)c12 [Kaempferol, 3,5,7,4′-tetrahydroxyflavone]",IC50,[1],290 nM
same,IC50,[2],380 nM
